Test results taken from PubChem BioAssay AID2380 (Sanford-Burnham Center for Chemical Genomics, 2010).
The entries are a selection whose mix differs from that of the whole data set. Some structures show a salt or complex split into parts, the way the source records it. Activity calls are given as the source filed them.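 Rule for the calls: active = compounds whose signal lies at least 3.5 SD above the mean of all wells on their plate; inactive = the rest.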

Assay: inducers of MIN6 beta-cell proliferation, primary screen, ATP luminescence, uHTS (AID 2380);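 note: 0% = DMSO-treated cells in low-serum medium and 100% = 10% serum control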
Conditions: MIN6 cells proliferation, ATPlite luminescence, 48 h; at 10 µM; active compounds read high; 100% = growth in 10% serum; cells starved in 0.2% serum
With `Cc1nc2ccc3ccccc3c2o1.O=[N+]([O-])c1cc([N+](=O)[O-])c(O)c([N+](=O)[O-])c1` the proliferation was inactive: -5.82%.
In the case of `COc1ccccc1OP(C)(=O)Nc1ccc(C)c(C)c1` (stereo unspecified), the proliferation is reported as inactive: -1.79%.
In the case of `COc1ccc(OP(C)(=O)Nc2ccccc2Br)cc1` (stereo unspecified), the proliferation is reported as inactive: -0.13%.
For `Cc1cc(C)cc(OP(C)(=O)Nc2cccc(C(F)(F)F)c2)c1` (stereo unspecified), the proliferation was inactive: 1.3%.
In the case of `CP(=O)(Nc1ccccn1)Oc1ccccc1` (stereo unspecified), the proliferation is reported as inactive: -0.17%.
With `COc1ccccc1OP(C)(=O)Nc1ccc(C)cc1C` (stereo unspecified) the proliferation was inactive: -2.88%.
In the case of `CCc1ccc(OP(C)(=O)O)cc1`, the proliferation is reported as inactive: 0.56%.
For `O=[N+]([O-])c1cc([N+](=O)[O-])c(Nc2ccccn2)c([N+](=O)[O-])c1`, the proliferation was inactive: -5.5%.
In the case of `Cc1c(NP(C)(=O)Oc2ccc(C(C)C)cc2)c(=O)n(-c2ccccc2)n1C` (stereo unspecified), the proliferation is reported as inactive: 0.67%.
For `COc1ccc(OP(C)(=O)Nc2ccccn2)cc1` (stereo unspecified), the proliferation was inactive: -2.46%.
With `CN(C)CCOC(=O)C(O)(c1ccccc1)C1CCCC1` (stereo unspecified) the proliferation was inactive: 0.25%.
In the case of `COc1ccccc1OP(C)(=O)Nc1ccc(Br)cc1` (stereo unspecified), the proliferation is reported as inactive: 0.53%.
With `COc1ccc2c(c1O)-c1c(O)c(OC)cc3c1[C@H](C2)[N+](C)(C)CC3.O=[N+]([O-])c1cc([N+](=O)[O-])c([O-])c([N+](=O)[O-])c1[O-]` the proliferation was inactive: 5.87%.
For `O=C(OC1CN2CCC1CC2)c1ccc([N+](=O)[O-])cc1` (stereo unspecified), the proliferation was inactive: -1.31%.
With `O=C(OCCN1CCN(CCOCc2ccccc2)CC1)C(O)(c1ccccc1)c1ccccc1` the proliferation was inactive: 0%.
With `CP(=O)(Nc1ccccc1F)Oc1ccccc1` (stereo unspecified) the proliferation was inactive: -1.48%.
In the case of `CC(C)c1ccc(OP(C)(=O)Nc2ccc(SC(F)(F)F)cc2)cc1` (stereo unspecified), the proliferation is reported as inactive: 0%.
With `CP(=O)(Nc1ccccc1)Oc1ccc(F)cc1` (stereo unspecified) the proliferation was inactive: -0.93%.
In the case of `CCCCCOc1ccc(NP(C)(=O)Oc2ccc(Cl)cc2Cl)cc1` (stereo unspecified), the proliferation is reported as inactive: -6.38%.
With `O=[N+]([O-])c1cc([N+](=O)[O-])c(OC2CCCCC2O)c([N+](=O)[O-])c1` (stereo unspecified) the proliferation was inactive: 0.26%.
With `CCN(CC)CCCOC(=O)C(O)(c1ccccc1)C1CCCCC1` (stereo unspecified) the proliferation was inactive: 0.17%.
In the case of `CCOC(=O)c1ccc(NP(C)(=O)Oc2ccc(F)cc2)cc1` (stereo unspecified), the proliferation is reported as inactive: 1%.
In the case of `COc1ccc(OP(C)(=O)Nc2ccc(SC(F)(F)F)cc2)cc1` (stereo unspecified), the proliferation is reported as inactive: -3.83%.
In the case of `O=[N+]([O-])c1cc([N+](=O)[O-])c(NCC2CCS(=O)(=O)C2)c([N+](=O)[O-])c1` (stereo unspecified), the proliferation is reported as inactive: -0.93%.
In the case of `CN(C)CCOC(=O)C(O)(c1ccccc1)C1CCCCC1` (stereo unspecified), the proliferation is reported as inactive: -1.63%.
With `COc1ccc(NP(C)(=O)Oc2ccccc2OC)cc1` (stereo unspecified) the proliferation was inactive: 0.05%.
With `COc1ccc(OP(C)(=O)Nc2cccc(Br)c2)cc1` (stereo unspecified) the proliferation was inactive: -2.87%.
For `Cc1ccccc1NP(C)(=O)Nc1ccccc1C`, the proliferation was inactive: -0.98%.
In the case of `CP(=O)(Nc1ccc2c(c1)OCCO2)Oc1ccccc1` (stereo unspecified), the proliferation is reported as inactive: -2.09%.
In the case of `CCOP(C)(=S)SCC(=O)NC(C)(CC)C(=O)O` (stereo unspecified), the proliferation is reported as inactive: 1.16%.
With `CP(=O)(Nc1ccc(SC(F)(F)F)cc1)Oc1ccc(F)cc1` (stereo unspecified) the proliferation was inactive: 2.61%.
